Details: [NaCl]=200 mM, HEPES pH 8.1, 47° C., 4 h; FIG. 4

concentration of the semi-final product after incubation (stability): 94%
Substance: [PtCl((Fe)DFO-pip)(ethane-1,2-diamine)]^+ TFA^− [4a]
